molecular target: adenosine A2A–StaR (Homo sapiens, UniProt P29274, A54L/K122A/L202A/L235A/R107A/S277A/T88A/V239A); settings: Biacore T200, 25 °C

The chains behind the UniProt entries cited, without tags or fusion partners. Residues count along the entry.
UniProt P29274, 1-317 A54L/T88A/R107A/K122A/L202A/L235A/V239A/S277A: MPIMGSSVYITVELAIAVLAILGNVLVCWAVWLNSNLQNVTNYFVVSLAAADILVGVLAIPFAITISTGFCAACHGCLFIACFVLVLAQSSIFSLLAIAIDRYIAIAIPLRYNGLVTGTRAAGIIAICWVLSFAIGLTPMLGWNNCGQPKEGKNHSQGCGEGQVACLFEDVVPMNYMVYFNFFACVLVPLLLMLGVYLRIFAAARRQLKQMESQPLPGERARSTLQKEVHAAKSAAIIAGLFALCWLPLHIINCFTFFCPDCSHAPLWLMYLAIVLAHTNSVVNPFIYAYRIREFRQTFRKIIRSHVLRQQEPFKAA

Compound	SPR ka (on rate)	SPR kd (off rate)
Cc1cc(-c2nnc(N)nc2-c2cc(F)cc(F)c2)cc(C)n1 [Compound 4i]	9.44 × 10^6	8.84 × 10^–2
Cc1cc(-c2nnc(N)nc2-c2ccc(F)cc2)cc(C(F)(F)F)n1 [Compound 4l]	1.55 × 10^6	4.09 × 10^–2

molecular target: human adenosine A2A receptor (Homo sapiens, UniProt P29274); settings: ligand efficiency as defined in ref 17

Compound	LE (ligand efficiency)
Cc1cc(-c2nnc(N)nc2-c2ccccc2)cc(C)c1O [Compound 4f, 4-(3-amino-5-phenyl-1,2,4-triazin-6-yl)-2,6-dimethylphenol]	0.52
Nc1nnc(-c2cc(Cl)cc(Cl)c2)c(-c2ccccc2)n1 [Compound 4c, 6-(3,5-Dichlorophenyl)-5-phenyl-1,2,4-triazin-3-amine]	0.55
Cc1cc(-c2nnc(N)nc2-c2ccccc2)cc(C(F)(F)F)n1 [Compound 4k, 6-[2-Methyl-6-(trifluoromethyl)pyridin-4-yl]-5-phenyl-1,2,4-triazin-3-amine]	0.48
Nc1nnc(-c2ccccc2)c(-c2ccccc2)n1 [Compound 4a, 5,6-Diphenyl-1,2,4-triazin-3-amine]	0.50
Cc1cc(-c2nnc(N)nc2-c2cccc(F)c2)cc(C)n1 [Compound 4j]	0.49
Nc1nnc(-c2cccc(Cl)c2)c(-c2ccccc2)n1 [Compound 4b, 6-(3-Chlorophenyl)-5-phenyl-1,2,4-triazin-3-amine]	0.50
